Ab-95 light chain CDR variants: yeast mating affinities

Source: Engelhart et al. 2022 (doi:10.1038/s41597-022-01779-4), MIT Lincoln Laboratory and A-Alpha Bio; data file from the FLAb repository.

All variants were tested on one target, the spike HR2 peptide PDVDLGDISGINAS (SARS-CoV-2).

The variants keep the heavy chain, the linker and the frameworks of Ab-95 (scFv order VH, the linker GGGGSGGGGSGGGGS, VL).
VH: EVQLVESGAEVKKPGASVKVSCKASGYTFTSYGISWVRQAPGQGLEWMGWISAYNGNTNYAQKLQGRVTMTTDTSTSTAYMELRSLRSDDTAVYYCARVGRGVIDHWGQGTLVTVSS
VL: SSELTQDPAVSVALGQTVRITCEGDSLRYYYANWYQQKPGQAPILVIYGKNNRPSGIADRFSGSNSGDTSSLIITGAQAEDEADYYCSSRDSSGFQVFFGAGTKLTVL

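The starting antibody came from a phage panning campaign against this peptide. AAYL52 was designed without a model: most single CDR substitutions and a random sample of double and triple ones. Affinity was read by AlphaSeq, a pooled yeast mating assay with surface-displayed partners. Mating (16 h, 30 °C) was followed by selection of diploids and sequencing of their barcodes. The ratio of observed to expected reads was calibrated, replicate by replicate, on BCL2-family standards whose Kd was known from biolayer interferometry. Each pool was mated in three replicate cultures.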

Positions count from residue 1 of the parent VL; Y31D puts D in place of Y.
Numbers give log10(Kd / nM), so 0 is 1 nM and 3 is 1 µM. Smaller is tighter.
The mean shown is taken over the replicates in which the pair was detected.
A pair that was not seen in any replicate is written "nd"; this usually means weak binding, but a binder can also be missed.
Entries are sorted by rising average, undetected variants last.
For reference, the parent read 2.31 as the reference entry and 2.25 as a member of this library.

changes | log10 Kd (nM), mean | detected | signal with controls
Y31D S93W V97T | 1.14 | 3 of 3 | 6 of 9
S26V Y30S S93W | 1.58 | 3 of 3 | 5 of 9
D25I F95K V97G | 1.70 | 3 of 3 | 1 of 9
Y31Q S93I | 1.97 | 3 of 3 | 2 of 9
S88F S92A S93A | 2.10 | 3 of 3 | 0 of 9
S89P S93G F95W | 2.15 | 3 of 3 | 3 of 9
G24A S26G L27M | 2.27 | 3 of 3 | 4 of 9
R28K R90N | 2.63 | 3 of 3 | 7 of 9
A32E S88W V97H | 2.65 | 3 of 3 | 2 of 9
E23G R28I K50L | 2.65 | 3 of 3 | 3 of 9
D25G Y30L K50W | 2.75 | 3 of 3 | 5 of 9
R28H R53D S55H | 2.82 | 2 of 3 | 0 of 9
E23H S93Q Q96F | 2.83 | 3 of 3 | 4 of 9
Y31P N51K S55K | 2.98 | 3 of 3 | 4 of 9
R28V Y29M F98I | 3.04 | 2 of 3 | 4 of 9
K50R R53Q F98H | 3.05 | 3 of 3 | 1 of 9
Y31V S92N | 3.06 | 2 of 3 | 0 of 9
L27T A32Q F98W | 3.06 | 3 of 3 | 4 of 9
Y31L K50Y S88E | 3.13 | 3 of 3 | 1 of 9
R28N P54E R90H | 3.15 | 3 of 3 | 1 of 9
R53K S93Y | 3.17 | 2 of 3 | 1 of 9
L27N A32H G94A | 3.18 | 3 of 3 | 3 of 9
D25C L27V K50N | 3.24 | 2 of 3 | 3 of 9
R28A S55M F95R | 3.30 | 3 of 3 | 0 of 9
S26P Y31V F95Q | 3.32 | 2 of 3 | 2 of 9
S26M K50Q F95L | 3.32 | 3 of 3 | 1 of 9
N51W N52Y D91W | 3.33 | 1 of 3 | 3 of 9
R90T D91G F98H | 3.47 | 3 of 3 | 3 of 9
D25M K50V S88T | 3.48 | 3 of 3 | 6 of 9
G24E S89G G94L | 3.51 | 2 of 3 | 5 of 9
S26C L27H Y30S | 3.53 | 3 of 3 | 0 of 9
N51Q R53Q F95D | 3.55 | 2 of 3 | 1 of 9
Y30D A32G F98L | 3.58 | 3 of 3 | 4 of 9
R28E S88T Q96S | 3.65 | 2 of 3 | 3 of 9
S26E K50W | 3.70 | 3 of 3 | 3 of 9
G49L N51L Q96G | 3.72 | 2 of 3 | 3 of 9

The remaining entries, values ahead:

log10 Kd (nM), mean | detected | signal with controls | changes
3.74 | 3 of 3 | 5 of 9 | A32I N51R N52I
3.76 | 2 of 3 | 4 of 9 | Y30C R90Q D91P
3.77 | 2 of 3 | 4 of 9 | Y29M N51I S89V
3.79 | 2 of 3 | 4 of 9 | Y31L N33Y S55R
3.82 | 2 of 3 | 1 of 9 | G24E S88C D91C
3.83 | 1 of 3 | 2 of 9 | G24L D25A Y31Q
3.84 | 1 of 3 | 5 of 9 | N52L P54F S93P
3.90 | 3 of 3 | 5 of 9 | L27P F95H
3.91 | 3 of 3 | 3 of 9 | Y31L N52D R53D
3.93 | 1 of 3 | 3 of 9 | Y30Q S89W R90Y
3.95 | 2 of 3 | 3 of 9 | Y29W P54A Q96E
3.98 | 2 of 3 | 4 of 9 | Y29V N51Y R90T
3.98 | 2 of 3 | 2 of 9 | R28F S88P Q96W
4.05 | 2 of 3 | 2 of 9 | Y29D N33W F98K
4.05 | 1 of 3 | 2 of 9 | N33M F95W
4.07 | 1 of 3 | 1 of 9 | S26D N51G G94M
4.12 | 3 of 3 | 3 of 9 | G49A N51Q Q96D
4.28 | 1 of 3 | 5 of 9 | E23R L27C R53Y
4.30 | 2 of 3 | 0 of 9 | R28N N51Y N52R
4.34 | 2 of 3 | 2 of 9 | G49H R90T F95Y
4.37 | 2 of 3 | 2 of 9 | N33H S92H V97M
4.40 | 3 of 3 | 3 of 9 | Y29L G49H N52C
4.53 | 2 of 3 | 3 of 9 | K50V R90L G94S
4.64 | 2 of 3 | 2 of 9 | G49E R90N D91T
4.75 | 3 of 3 | 6 of 9 | G24T N33T N51P
4.78 | 1 of 3 | 3 of 9 | D25Y A32S D91N
4.79 | 3 of 3 | 5 of 9 | R53D S55D Q96E
4.82 | 2 of 3 | 4 of 9 | A32F N52T G94Q
4.85 | 1 of 3 | 2 of 9 | G24L Q96S V97G
4.91 | 1 of 3 | 2 of 9 | E23F L27R Y29Q
4.91 | 3 of 3 | 3 of 9 | R28M G49I R53G
5.55 | 1 of 3 | 4 of 9 | Y31H N33T V97K
nd | 0 of 3 | 1 of 9 | S26E Y31K V97W
nd | 0 of 3 | 3 of 9 | Y29F A32R R90K
nd | 0 of 3 | 0 of 9 | E23C G24L S92T
nd | 0 of 3 | 3 of 9 | L27T N51I S89G
nd | 0 of 3 | 1 of 9 | R53M S55T G94Q

Top 6 of the variants detected in all replicates, tightest first:

changes,"log10 Kd (nM), mean",detected,signal with controls
Y31D S93W V97T,1.14,3 of 3,6 of 9
S26V Y30S S93W,1.58,3 of 3,5 of 9
D25I F95K V97G,1.70,3 of 3,1 of 9
Y31Q S93I,1.97,3 of 3,2 of 9
S88F S92A S93A,2.10,3 of 3,0 of 9
S89P S93G F95W,2.15,3 of 3,3 of 9

Background: pairings of library AAYL52 with three empty control strains gave a value in 28% of cases (median 3.91, 5th percentile 2.90). Values in that range, when seen in few replicates, are hard to tell from nonspecific mating. For each scFv, signals with the empty controls are counted beside the result.